Yeast mating assay B: variants of the scFv Ab-14

Source: Li et al. 2023 (doi:10.1038/s41467-023-39022-2), MIT Lincoln Laboratory and A-Alpha Bio; data file from the FLAb repository.

Antigen: PDVDLGDISGINAS, a 14-residue peptide of the SARS-CoV-2 spike HR2 region.

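Designed CDR sequences, proposed from the first random library and measured here. Their group label is 14H_GP_HC (GP: Gaussian process model; HC: hill climbing; a sequence that several methods proposed may carry one label only). Affinity was read by AlphaSeq, a pooled yeast mating assay with surface-displayed partners. The frequency of each diploid, read from paired DNA barcodes, reflects how well the two displayed proteins bind. Read counts were normalised to the haploid input and turned into Kd by a linear fit to BCL2-family pairs of known affinity, for each replicate. There are six technical replicates.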

Parent scFv Ab-14: VH joined to VL by a (GGGGS)3 linker. Changes lie in the heavy chain CDRs alone.
VH: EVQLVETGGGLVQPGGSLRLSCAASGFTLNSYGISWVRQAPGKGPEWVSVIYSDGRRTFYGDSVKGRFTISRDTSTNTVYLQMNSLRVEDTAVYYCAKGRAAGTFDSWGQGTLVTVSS
VL: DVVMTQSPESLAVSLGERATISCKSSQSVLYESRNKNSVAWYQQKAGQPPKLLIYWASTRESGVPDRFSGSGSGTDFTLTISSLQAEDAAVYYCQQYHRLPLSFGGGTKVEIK

Positions count from residue 1 of the parent VH; S31E puts E in place of S. Affinities are written as log10 Kd with Kd in nM; a lower number is a better binder. Replicates are averaged; those with no signal do not enter the mean. Where no diploid with the target was found in that replicate, the entry reads "ND": below detection, most likely a poor binder, though not proof of it. In the paper, a design with two or fewer of six values counts as a poor binder.

changes,log10 Kd (nM) by replicate,"log10 Kd (nM), mean",empty controls
S31E+D62P+G103V+S107Q,ND / ND / ND / ND / ND / ND,ND,0/18
T28S+S31Q+S53A,0.99 / 0.59 / 0.79 / 0.66 / 0.54 / 0.71,0.71,0/18
G26W+S31E+G61R+A101T,ND / ND / ND / ND / ND / ND,ND,0/18
G61E+R100Q+A101L+S107T,ND / 0.75 / 1.02 / 0.80 / 2.66 / ND,1.31,0/18
S31D+G61K+D106M,ND / ND / ND / ND / ND / 1.34,1.34,0/18
S31E+G61D+A101V,0.15 / -0.01 / -0.26 / -0.44 / -0.12 / 0.07,-0.10,0/18
T28V+S31E+S53A+R100Q,-0.24 / -0.37 / -0.46 / -0.74 / -0.45 / -0.20,-0.41,0/18
S31E+G61S+S63A+A101C,ND / ND / 1.40 / 1.81 / ND / 1.34,1.52,0/18
G61T+A101E+S107V,0.13 / -0.50 / 0.74 / 0.23 / 0.28 / -0.18,0.11,0/18
T28W+S31D+S107I,1.62 / 0.81 / 1.37 / 1.52 / 1.00 / 1.20,1.25,1/18 (3.32)
F27N+T28S+S31E+A101T,ND / ND / ND / ND / ND / ND,ND,0/18
T28S+S31D+G61I+A101L,1.77 / 0.96 / 0.49 / 0.96 / 0.75 / 0.69,0.94,0/18
T28S+G61S+R100M+A101L,0.22 / 0.06 / 0.08 / -0.22 / 0.00 / 0.35,0.08,0/18
S31D+G61I+S63Q+R100N,0.70 / 0.22 / -0.05 / 0.09 / 0.35 / 0.70,0.33,1/18 (2.57)
N30E+S31K+S53A,0.80 / 0.42 / 0.41 / 0.38 / 0.12 / 0.43,0.43,2/18 (2.78)
G26S+T28E+S53A,1.19 / 1.07 / 0.42 / 0.85 / 0.87 / 1.07,0.91,0/18
T28S+S31M+F59Q+G61M,ND / 2.02 / 1.33 / 2.07 / 2.60 / 2.33,2.07,0/18
G61Q+R100K+A101L,1.46 / ND / ND / ND / ND / 2.52,1.99,0/18
S31E+G61S+A102G+D106M,ND / ND / ND / ND / ND / ND,ND,0/18
S53A+R100Q+D106S,1.56 / 2.76 / 1.23 / 3.58 / 0.93 / 3.14,2.20,0/18
T28D+F59E+D106N,ND / ND / ND / ND / ND / ND,ND,0/18
S31E+G61D+D106I,ND / ND / ND / ND / ND / ND,ND,0/18
S31E+G61Q+A101F+S107K,1.76 / 1.91 / 1.21 / 1.13 / 1.28 / 1.59,1.48,0/18
T28K+S31E+F59Q+G61M,1.46 / 2.02 / 2.03 / 1.59 / 1.64 / 1.68,1.74,1/18 (2.87)
G61A+R100T+A101L,0.13 / 0.12 / 0.25 / -0.08 / 0.28 / 0.05,0.13,0/18
T28S+G61D+R100M+A101K,1.01 / 1.07 / 1.53 / 1.17 / 0.81 / 1.56,1.19,0/18
S31E+S53A+S107I,-0.76 / -0.68 / -0.55 / -1.11 / -0.44 / -0.35,-0.65,0/18
T28W+S31D+G61I+S63T+R100N,ND / ND / 1.62 / ND / ND / 1.70,1.66,0/18
T28V+S31E+G61K,0.40 / 0.61 / 0.22 / ND / 0.60 / -0.14,0.34,0/18
T28P+S31E+S53A+R100T,-0.88 / -0.11 / -0.58 / -1.15 / -1.08 / -0.81,-0.77,0/18
T28D+S31E+G61T+A101E,-0.25 / -0.48 / -0.34 / -0.69 / -0.59 / -0.17,-0.42,0/18
T28F+S31E+S107Q,ND / ND / ND / ND / ND / ND,ND,0/18

Extract of 4 entries:

changes,log10 Kd (nM) by replicate,"log10 Kd (nM), mean",empty controls
S31E+G61Q+A101F+S107K,1.76 / 1.91 / 1.21 / 1.13 / 1.28 / 1.59,1.48,0/18
T28S+S31Q+S53A,0.99 / 0.59 / 0.79 / 0.66 / 0.54 / 0.71,0.71,0/18
T28W+S31D+G61I+S63T+R100N,ND / ND / 1.62 / ND / ND / 1.70,1.66,0/18
T28D+F59E+D106N,ND / ND / ND / ND / ND / ND,ND,0/18

Background: pairings of all heavy chain designs with three empty control strains gave a value in 1% of cases (median 2.08, 5th percentile 0.84). Values in that range, when seen in few replicates, are hard to tell from nonspecific mating. Also given: how often the same scFv was detected with the empty control strains, with their mean in brackets. Of ten entries with the parent sequence, four were seen in most replicates (averages 0.34 to 2.37), three in one and three in none, so single entries are noisy. A sequence measured in both rounds can read differently, since the two assays cover different ranges.